The entries are a selection whose mix differs from that of the whole data set. Active and inactive are the calls of the source.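 The calls were made as follows: active = activation above a run cutoff, the mean activation of all tested compounds plus 3 SD (cut at about 14% in these data); inactive = the rest.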
Molecular target: 5-hydroxytryptamine receptor 2A (Mus musculus) (UniProt P35363)
Assay: mouse Htr2a agonists via beta-arrestin recruitment, primary screen, cell-based, luminescence (AID 624169);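 also: 0% = plate median of compound wells and 100% = 30 µM serotonin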
Settings: CHO-K1 mHTR2A beta-arrestin complementation, at 7.6 µM, hits give high values, percent of 30 µM serotonin response

Amino acid sequences for entries named in this document (tags omitted).
UniProt P35363, whole entry: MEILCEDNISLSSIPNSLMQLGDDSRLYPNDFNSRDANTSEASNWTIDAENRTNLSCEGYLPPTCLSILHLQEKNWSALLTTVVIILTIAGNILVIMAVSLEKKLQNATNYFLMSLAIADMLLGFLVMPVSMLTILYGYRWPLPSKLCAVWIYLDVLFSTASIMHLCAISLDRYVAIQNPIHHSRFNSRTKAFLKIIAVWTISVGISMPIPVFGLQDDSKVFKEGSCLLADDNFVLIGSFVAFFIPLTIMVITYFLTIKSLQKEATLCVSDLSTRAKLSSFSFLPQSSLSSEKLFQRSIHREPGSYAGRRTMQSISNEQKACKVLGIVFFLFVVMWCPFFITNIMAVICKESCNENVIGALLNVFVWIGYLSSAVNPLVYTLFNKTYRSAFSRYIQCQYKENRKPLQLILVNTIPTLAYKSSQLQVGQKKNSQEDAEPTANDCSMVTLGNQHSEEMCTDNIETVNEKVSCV

| Compound | activation |
| --- | --- |
| O=C(NCC1(N2CCCCC2)CCCCC1)c1cncc(Br)c1 | inactive: 1.78% |
| CN1CCC(Nc2cccc(F)c2)CC1 | inactive: -6.9% |
| COc1ccc(C(c2nnnn2C2CCCC2)N2CCC(n3c(=O)[nH]c4ccccc43)CC2)cc1 (stereo not drawn) | inactive: -1.78% |
| Cc1ccc(C(=O)NCC2(N(C)C)CCCCC2)o1 | inactive: 4.52% |
| CCCOc1ccc(C(=O)NCC2(N(C)C)CCCCC2)cc1OC | inactive: -8.19% |
| CC(C)c1ccc(NC2CCN(C(=O)OC(C)(C)C)CC2)cc1 | inactive: -0.02% |
| CCCCn1nnnc1C(c1ccccc1OC(F)(F)F)N1CCC(n2c(=O)[nH]c3ccccc32)CC1 (stereo not drawn) | inactive: 7.21% |
| COc1ccc(CN(CCCl)CCCl)cc1Cl | inactive: -0.36% |
| CN(C)c1cccc(C(=O)NCC2(N3CCCCC3)CCCCC2)c1 | inactive: -8.1% |
| COc1cc(OC)c(C(=O)NCC2(N(C)C)CCCCC2)cc1OC | inactive: -2.53% |
| CCC(c1nnnn1C(C)(C)C)N1CCC(n2c(=O)[nH]c3ccccc32)CC1 (stereo not drawn) | inactive: 2.65% |
| O=C(NCC1(N2CCOCC2)CCCCC1)c1cc(F)c(F)cc1Cl | inactive: 6.66% |
| CCCCn1nnnc1C(c1ccnc2ccccc12)N1CCC(n2c(=O)[nH]c3ccccc32)CC1 (stereo not drawn) | inactive: 0.12% |
| O=C(NCC1(N2CCCCC2)CCCCC1)c1cccc(C(F)(F)F)c1 | inactive: -3.52% |
| O=C(NCC1(N2CCOCC2)CCCCC1)c1cc(=O)[nH]c2ccccc12 | inactive: -1.52% |
| COc1cc(C(=O)NCC2(N3CCCCC3)CCCCC2)ccc1OC(F)F | inactive: -16.2% |
| CCCCn1nnnc1C(c1cccc2ccccc12)N1CCC(n2c(=O)[nH]c3ccccc32)CC1 (stereo not drawn) | inactive: 2.48% |
| COc1ccc(NC2CCN(C(=O)OC(C)(C)C)CC2)cc1 | inactive: -1.59% |
| CC(C)c1ccc(C(=O)NCC2(N3CCOCC3)CCCCC2)cc1 | inactive: -3.45% |
| CN1CCN(CCOC(=O)C(O)(c2ccccc2)c2ccccc2)CC1 | inactive: -3.56% |
| CC(C)(C)n1nnnc1C(c1ccccc1OC(F)(F)F)N1CCC(n2c(=O)[nH]c3ccccc32)CC1 (stereo not drawn) | inactive: 4.6% |
| O=C(NCC1(N2CCCCC2)CCCCC1)c1ccc(OC(F)F)cc1 | inactive: -7.88% |

| Compound | activation |
| --- | --- |
| CCN1CCC(Nc2ccc(Cl)cc2)CC1 | inactive: -4.32% |
| N#CC1(Nc2ccccc2)CCN(CCc2ccccc2)CC1 | inactive: -2.13% |
| O=c1[nH]c2ccccc2n1C1CCN(C(c2ccccc2OC(F)(F)F)c2nnnn2C2CCCC2)CC1 (stereo not drawn) | inactive: 4.75% |
| CSc1ccc(C(=O)NCC2(N3CCOCC3)CCCCC2)cc1 | inactive: 1.7% |
| O=C(NCC1(N2CCCCC2)CCCCC1)c1cccc([N+](=O)[O-])c1 | inactive: -5.75% |
| O=c1[nH]c2ccccc2n1C1CCN(C(c2ccccc2)c2nnnn2C2CCCCC2)CC1 (stereo not drawn) | inactive: -4.13% |
| COc1cc(C(=O)NCC2(N(C)C)CCCCC2)ccc1OC(F)F | inactive: -11.1% |
| CCOC(=O)N1CCC(Nc2cccc(C)c2)CC1 | inactive: -4.91% |
| O=c1[nH]c2ccccc2n1C1CCN(C(c2cccc3ccccc23)c2nnnn2C2CCCC2)CC1 (stereo not drawn) | inactive: -1.95% |
| CC(C)(C)n1nnnc1C(c1ccccc1)N1CCC(n2c(=O)[nH]c3ccccc32)CC1 (stereo not drawn) | inactive: -5.24% |
| O=C1CCN(Cc2ccccc2)CC1 | inactive: -0.03% |
| CCOc1ccc(C)cc1CN(CCCl)CCCl | inactive: -4.85% |
| O=C(NCC1(N2CCCCC2)CCCCC1)c1ccc(F)cc1 | inactive: -6.33% |
| CCCCOc1ccc(C(=O)NCC2(N3CCOCC3)CCCCC2)cc1 | inactive: -11.6% |
| O=P1(N(CCCl)CCCl)SCCCS1 | inactive: 5.25% |
| CCCCn1nnnc1C(c1cc2ccccc2o1)N1CCC(n2c(=O)[nH]c3ccccc32)CC1 (stereo not drawn) | inactive: 0.88% |
| CCOC(=O)N1CCC(Nc2ccc(F)cc2)CC1 | inactive: 4.4% |
| COc1ccc(NC2CCN(CCc3ccccc3)CC2)c(OC)c1 | inactive: -3.98% |
| O=c1[nH]c2ccccc2n1C1CCN(C(c2ccccc2OC(F)(F)F)c2nnnn2C2CCCCC2)CC1 (stereo not drawn) | inactive: -2.67% |
| O=C(NCC1(N2CCCCC2)CCCCC1)c1ccc(Cl)nc1 | inactive: -2.51% |
| Cc1cc(C)cc(N(C(=O)c2ccccc2)C2CCN(C(=O)OC(C)(C)C)CC2)c1 | inactive: -10.1% |
| O=C(NCC1(N2CCOCC2)CCCCC1)c1cc2ccccc2o1 | inactive: -6.84% |

| Compound | activation |
| --- | --- |
| O=c1[nH]c2ccccc2n1C1CCN(C(c2cc3ccccc3o2)c2nnnn2C2CCCCC2)CC1 (stereo not drawn) | inactive: 0.05% |
| O=C(OC1CN2CCC1CC2)C1c2ccccc2Oc2ccccc21 (stereo not drawn) | inactive: -4.1% |
| N#CC1(Nc2ccccc2)CCN(Cc2ccccc2)CC1 | inactive: 0.56% |
| O=C(NCC1(N2CCCCC2)CCCCC1)c1ccc(Cl)s1 | inactive: -10.8% |
| COc1ccc(Cl)cc1C(=O)NCC1(N2CCOCC2)CCCCC1 | inactive: -3.39% |
| CCOC(=O)N1CCC(Nc2ccc(OC)cc2)CC1 | inactive: 0.19% |
| CCCCn1nnnc1C(c1ccc(OC)cc1)N1CCC(n2c(=O)[nH]c3ccccc32)CC1 (stereo not drawn) | inactive: 1.2% |
| COc1ccc(C(=O)NCC2(N3CCCCC3)CCCCC2)cc1 | inactive: -13.4% |
| CCC(c1nnnn1C1CCCC1)N1CCC(n2c(=O)[nH]c3ccccc32)CC1 (stereo not drawn) | inactive: -1.57% |
| COc1ccc(C(=O)NCC2(N3CCCCC3)CCCCC2)c(OC)c1OC | inactive: -1.97% |
| CC(C)(C)OC(=O)N1CCC(N(C(=O)c2ccccc2)c2ccc(F)cc2)CC1 | inactive: -5.57% |
| O=C(NCC1(N2CCCCC2)CCCCC1)c1ccc(=O)[nH]c1 | inactive: 2.92% |
| CCCCn1nnnc1C(c1cccs1)N1CCC(n2c(=O)[nH]c3ccccc32)CC1 (stereo not drawn) | inactive: 3.41% |
| CCCCn1nnnc1C(CC)N1CCC(n2c(=O)[nH]c3ccccc32)CC1 (stereo not drawn) | inactive: 1.79% |
| O=C(NCC1(N2CCCCC2)CCCCC1)c1cccs1 | inactive: -7.77% |
| CSc1ccccc1C(=O)NCC1(N2CCCCC2)CCCCC1 | inactive: 3.16% |
| Cc1cccc(NC2(C#N)CCN(Cc3ccccc3)CC2)c1 | inactive: -1.62% |
| COc1cccc(C(=O)N(c2cc(C)cc(C)c2)C2CCN(C(=O)OC(C)(C)C)CC2)c1 | inactive: 4.54% |
| COc1cccc(C(c2nnnn2C2CCCC2)N2CCC(n3c(=O)[nH]c4ccccc43)CC2)c1OC (stereo not drawn) | inactive: 4.63% |
| COc1cc(OC)cc(C(=O)NCC2(N3CCOCC3)CCCCC2)c1 | inactive: -5.26% |
| CCC(CO)(C(=O)OC1CN2CCC1CC2)c1ccccc1 (stereo not drawn) | inactive: 3.66% |
| CN1CCC(Nc2ccc(Cl)cc2)CC1 | inactive: -1.92% |

| Compound | activation |
| --- | --- |
| CCOc1ncccc1C(=O)NCC1(N2CCOCC2)CCCCC1 | inactive: 1.71% |
| CN1CCC(Nc2ccc(F)c(Cl)c2)CC1 | inactive: -3.71% |
| CC(C)(C)OC(=O)N1CCC(Nc2ccccc2)CC1 | inactive: 4.35% |
| NN(c1ccccc1)C1CCN(CCc2ccccc2)CC1 | inactive: -10.9% |
| O=C(O)C1(Nc2ccccc2)CCN(Cc2ccccc2)CC1 | inactive: -7.36% |
| CCCOc1ccc(C(=O)NCC2(N(C)C)CCCCC2)cc1 | inactive: -9.46% |
| O=c1[nH]c2ccccc2n1C1CCN(C(c2cc3ccccc3o2)c2nnnn2C2CCCC2)CC1 (stereo not drawn) | inactive: 5.07% |
| Cc1ccccc1NC1(C#N)CCN(Cc2ccccc2)CC1 | inactive: 2.43% |
| CC(C)(C)n1nnnc1C(c1ccnc2ccccc12)N1CCC(n2c(=O)[nH]c3ccccc32)CC1 (stereo not drawn) | inactive: 1.41% |
| COc1ccc(C(c2nnnn2C2CCCCC2)N2CCC(n3c(=O)[nH]c4ccccc43)CC2)cc1 (stereo not drawn) | inactive: -1.7% |
| CCN1CCC(Nc2cccc(F)c2)CC1 | inactive: -2.73% |
| O=C(NCC1(N2CCCCC2)CCCCC1)c1ccco1 | inactive: -3.91% |
| Cn1c(=O)[nH]cc(N(CCCl)CCCl)c1=O | inactive: 8.27% |
| CN(C)c1ccc(C(=O)NCC2(N3CCCCC3)CCCCC2)cc1 | inactive: -1.9% |
| CC(=O)N(c1ccccc1)C1CCNCC1 | inactive: 3.3% |
| COc1cccc(C(c2nnnn2C2CCCCC2)N2CCC(n3c(=O)[nH]c4ccccc43)CC2)c1OC (stereo not drawn) | inactive: -1.92% |
| CCC(c1nnnn1C1CCCCC1)N1CCC(n2c(=O)[nH]c3ccccc32)CC1 (stereo not drawn) | inactive: -1.82% |
| O=c1[nH]c2ccccc2n1C1CCN(C(c2ccnc3ccccc23)c2nnnn2C2CCCCC2)CC1 (stereo not drawn) | inactive: -5.24% |
| COc1cc(OC)cc(C(=O)NCC2(N3CCCCC3)CCCCC2)c1 | inactive: -18.3% |
| Cc1ccc(C(=O)NCC2(N3CCCCC3)CCCCC2)o1 | inactive: 0.65% |
| Fc1ccccc1NC1CCN(Cc2ccccc2)CC1 | inactive: -3.42% |
| Cc1ccc(NC2(C#N)CCN(Cc3ccccc3)CC2)cc1 | inactive: 4.62% |

| Compound | activation |
| --- | --- |
| CN(C)C1(CNC(=O)c2cccc(C#N)c2)CCCCC1 | inactive: -0.81% |
| c1ccc(CN2CCC(Nc3ccccc3)CC2)cc1 | inactive: -0.88% |
| CCCN1CCC(Nc2cc(OC)cc(OC)c2)CC1 | inactive: -3.93% |
| O=c1[nH]c2ccccc2n1C1CCN(C(c2ccccc2)c2nnnn2C2CCCC2)CC1 (stereo not drawn) | inactive: -1.62% |
| Cc1cc(N(CCCl)CCCl)ccc1C=O | inactive: -3.18% |
| CC(C)(C)n1nnnc1C(c1cccc2ccccc12)N1CCC(n2c(=O)[nH]c3ccccc32)CC1 (stereo not drawn) | inactive: 8.58% |
| N#Cc1ccc(C(=O)NCC2(N3CCCCC3)CCCCC2)cc1 | inactive: -7.17% |
| CC(C)(C)OC(=O)N1CCC(N(C(=O)c2ccccc2)c2ccc(Cl)cc2)CC1 | inactive: -14.3% |
| COc1cccc(C(c2nnnn2C(C)(C)C)N2CCC(n3c(=O)[nH]c4ccccc43)CC2)c1OC (stereo not drawn) | inactive: -2.7% |
| CCOC(=O)N1CCC(Nc2ccc(C)cc2)CC1 | inactive: 9.93% |
| N/C(=N\O)c1c(N)no[n+]1[O-] | inactive: -3.61% |
| O=C(OC1CN2CCC1CC2)C1c2ccccc2C=Cc2ccccc21 (stereo not drawn) | inactive: 0.54% |
| O=c1[nH]c2ccccc2n1C1CCN(C(c2cccs2)c2nnnn2C2CCCC2)CC1 (stereo not drawn) | inactive: 4.18% |
| CCCCn1nnnc1C(c1cccc(OC)c1OC)N1CCC(n2c(=O)[nH]c3ccccc32)CC1 (stereo not drawn) | inactive: 3.35% |
| CCCCn1nnnc1C(c1ccccc1)N1CCC(n2c(=O)[nH]c3ccccc32)CC1 (stereo not drawn) | inactive: 3.44% |
| COc1cc(C(=O)NCC2(N3CCOCC3)CCCCC2)cc(OC)c1C | inactive: -6.24% |
| O=C(NCC1(N2CCOCC2)CCCCC1)c1cc(Br)ccc1Cl | inactive: -7.81% |
| O=c1[nH]c2ccccc2n1C1CCN(C(c2cccs2)c2nnnn2C2CCCCC2)CC1 (stereo not drawn) | inactive: 2.03% |
| COc1ccc(C(=O)NCC2(N3CCOCC3)CCCCC2)cc1OC | inactive: 0.58% |
| O=c1[nH]c2ccccc2n1C1CCN(C(c2ccnc3ccccc23)c2nnnn2C2CCCC2)CC1 (stereo not drawn) | inactive: 3.5% |
